Target: human mGluR5 (Homo sapiens, UniProt P41594)
Experiment: Cell-based functional Ca2+ mobilization assay (FDSS), potentiation of glutamate EC20 response
Settings: H10H cell-line; for Emax (%): maximum % effect as percent of response to maximally effective glutamate, glutamate EC20 present; for pEC50: potentiation in presence of glutamate EC20

Protein sequences, listed by entry. Tags and fused reporters are not part of them. Residues count along the entry.
UniProt P41594, 21-1180 isoform 2 limits assumed: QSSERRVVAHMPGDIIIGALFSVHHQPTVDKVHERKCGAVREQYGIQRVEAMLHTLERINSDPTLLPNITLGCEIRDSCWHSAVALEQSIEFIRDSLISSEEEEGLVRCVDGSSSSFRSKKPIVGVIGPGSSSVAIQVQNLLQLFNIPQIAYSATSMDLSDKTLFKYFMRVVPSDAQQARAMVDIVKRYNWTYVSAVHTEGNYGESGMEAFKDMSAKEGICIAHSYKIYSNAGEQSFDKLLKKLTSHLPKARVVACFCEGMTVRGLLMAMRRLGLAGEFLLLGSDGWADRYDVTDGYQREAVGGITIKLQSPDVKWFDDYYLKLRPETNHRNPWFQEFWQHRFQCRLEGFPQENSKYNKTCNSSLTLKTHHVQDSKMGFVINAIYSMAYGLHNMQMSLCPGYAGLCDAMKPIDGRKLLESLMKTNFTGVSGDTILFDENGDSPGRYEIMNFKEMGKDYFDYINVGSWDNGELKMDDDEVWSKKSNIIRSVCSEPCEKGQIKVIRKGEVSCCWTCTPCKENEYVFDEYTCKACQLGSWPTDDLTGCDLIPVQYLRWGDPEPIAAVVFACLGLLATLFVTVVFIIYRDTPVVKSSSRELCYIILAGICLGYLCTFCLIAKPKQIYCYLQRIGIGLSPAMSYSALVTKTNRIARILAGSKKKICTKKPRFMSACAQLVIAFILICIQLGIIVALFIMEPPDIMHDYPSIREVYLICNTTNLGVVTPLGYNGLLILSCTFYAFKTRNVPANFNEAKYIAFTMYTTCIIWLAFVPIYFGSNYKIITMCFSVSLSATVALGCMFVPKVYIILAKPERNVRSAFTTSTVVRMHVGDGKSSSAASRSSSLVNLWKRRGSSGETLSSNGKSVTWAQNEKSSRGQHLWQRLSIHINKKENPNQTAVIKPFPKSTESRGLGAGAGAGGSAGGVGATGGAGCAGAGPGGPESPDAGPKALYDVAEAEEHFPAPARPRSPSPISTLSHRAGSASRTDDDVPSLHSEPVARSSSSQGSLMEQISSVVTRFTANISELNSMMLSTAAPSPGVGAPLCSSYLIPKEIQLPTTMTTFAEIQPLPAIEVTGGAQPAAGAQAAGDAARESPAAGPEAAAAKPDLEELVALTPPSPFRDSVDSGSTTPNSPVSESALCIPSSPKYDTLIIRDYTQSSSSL

Structure (SMILES)	Emax (%)	pEC50
C[C@H]1CN(CC2CC2(F)F)C(=O)c2cc(COc3ccccc3)nn21 (some centres unmarked)	64	6.54
O=C1c2cc(COc3ccccc3)nn2CCN1C1CCCCCC1	60	7.17
CC1CN(CC2(C)COC2)C(=O)c2cc(COc3ccccc3)nn21 (single isomer, unassigned)	76	5.46
C[C@H]1CN(CC2CCC2)C(=O)c2cc(COc3ccccc3)nn21	75	7.02
